Source: PubChem BioAssay AID652039 (The Scripps Research Institute Molecular Screening Center, 2013)
This is a selection; strong and weak results do not stand in their true shares. Some salts and complexes are drawn in separate pieces, as the source files them; their charges need not balance. Active and inactive are the calls of the source.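 How the source made its calls: active means activation above the mean of all tested compounds plus 3 SD, computed per campaign excluding outliers beyond control limits (cut at about 13% in these data); inactive means the rest.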

Chains of the proteins cited; added tags and fusions are not shown.
UniProt P49862, whole entry: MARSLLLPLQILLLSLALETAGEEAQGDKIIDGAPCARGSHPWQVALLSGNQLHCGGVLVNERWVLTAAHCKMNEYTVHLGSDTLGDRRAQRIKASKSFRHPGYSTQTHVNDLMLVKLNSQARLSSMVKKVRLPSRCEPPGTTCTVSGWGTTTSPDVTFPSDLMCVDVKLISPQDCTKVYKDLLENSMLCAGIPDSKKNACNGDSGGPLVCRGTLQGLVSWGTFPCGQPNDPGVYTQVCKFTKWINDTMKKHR

The molecules below were run against Kallikrein-7 (Homo sapiens) (UniProt P49862) (assay: proKLK7 zymogen activators, primary screen, biochemical, fluorescence intensity (AID 652039)). Details: purified proKLK7, EDANS-DABCYL substrate fluorescence; at 7 µM; hits give high values; 100% is mature enzyme control, 0% vehicle.
For `CP(=O)(Nc1ccc(Cl)cc1Cl)Oc1ccccc1` (stereo unspecified), the activation was inactive: -0.54%.
For `CP(=O)(OCCOc1ccccc1)OCCOc1ccccc1`, the activation was inactive: -0.05%.
`O=C1C(O)=C([N+](=O)[O-])C(=O)C(O)=C1[N+](=O)[O-]` was tested, and the activation was inactive: 0.32%.
For `Cc1cc(C)cc(OP(C)(=O)Nc2cccc(C(F)(F)F)c2)c1` (stereo unspecified), the activation was inactive: -0.15%.
`COc1ccccc1OP(C)(=O)Nc1ccc(C)c(C)c1` (stereo unspecified) was tested, and the activation was inactive: 0.68%.
With `COc1ccc(OP(C)(=O)Nc2ccccc2Br)cc1` (stereo unspecified) the activation was inactive: 0.05%.
With `Cc1c(NP(C)(=O)Oc2ccc(C(C)C)cc2)c(=O)n(-c2ccccc2)n1C` (stereo unspecified) the activation was inactive: 0.25%.
With `O=[N+]([O-])c1cc([N+](=O)[O-])c(Nc2ccccn2)c([N+](=O)[O-])c1` the activation was inactive: 0.42%.
In the case of `CP(=O)(Nc1ccccn1)Oc1ccccc1` (stereo unspecified), the activation is reported as inactive: -0.41%.
In the case of `COc1ccccc1OP(C)(=O)Nc1ccc(C)cc1C` (stereo unspecified), the activation is reported as inactive: -0.19%.
`CCc1ccc(OP(C)(=O)O)cc1` was tested, and the activation was inactive: -0.26%.
`COc1ccccc1OP(C)(=O)Nc1ccc(Br)cc1` (stereo unspecified) was tested, and the activation was inactive: 0.24%.
`COc1ccc(OP(C)(=O)Nc2ccccn2)cc1` (stereo unspecified) was tested, and the activation was inactive: 0.11%.
`CN(C)CCOC(=O)C(O)(c1ccccc1)C1CCCC1` (stereo unspecified) was tested, and the activation was inactive: 0.15%.
With `O=C(OC1CN2CCC1CC2)c1ccc([N+](=O)[O-])cc1` (stereo unspecified) the activation was inactive: -0.55%.
In the case of `O=C(OCCN1CCN(CCOCc2ccccc2)CC1)C(O)(c1ccccc1)c1ccccc1`, the activation is reported as inactive: -0.2%.
`COc1ccc2c(c1O)-c1c(O)c(OC)cc3c1[C@H](C2)[N+](C)(C)CC3.O=[N+]([O-])c1cc([N+](=O)[O-])c([O-])c([N+](=O)[O-])c1[O-]` was tested, and the activation was inactive: 8.35%.
For `O=[N+]([O-])c1cc([N+](=O)[O-])c(Nc2ccc(Cl)cc2)c([N+](=O)[O-])c1`, the activation was inactive: -0.35%.
In the case of `CP(=O)(Nc1ccccc1F)Oc1ccccc1` (stereo unspecified), the activation is reported as inactive: 0.09%.
For `CC(C)c1ccc(OP(C)(=O)Nc2ccc(SC(F)(F)F)cc2)cc1` (stereo unspecified), the activation was inactive: -0.26%.
With `Cc1c([N+](=O)[O-])cc([N+](=O)[O-])c(Br)c1[N+](=O)[O-]` the activation was inactive: 0.77%.
With `CCN(CC)CCCOC(=O)C(O)(c1ccccc1)C1CCCCC1` (stereo unspecified) the activation was inactive: -1.04%.
In the case of `CP(=O)(Nc1ccccc1)Oc1ccc(F)cc1` (stereo unspecified), the activation is reported as inactive: 0.43%.
For `CCCCCOc1ccc(NP(C)(=O)Oc2ccc(Cl)cc2Cl)cc1` (stereo unspecified), the activation was inactive: -0.42%.
For `O=[N+]([O-])c1cc([N+](=O)[O-])c(OC2CCCCC2O)c([N+](=O)[O-])c1` (stereo unspecified), the activation was inactive: -0.18%.
For `CCN(CC)CCCNc1ccccc1[N+](=O)[O-].O=[N+]([O-])c1cc([N+](=O)[O-])c(O)c([N+](=O)[O-])c1`, the activation was inactive: 0.02%.
With `CCOC(=O)c1ccc(NP(C)(=O)Oc2ccc(F)cc2)cc1` (stereo unspecified) the activation was inactive: 0.45%.
With `COc1ccc(OP(C)(=O)Nc2ccc(SC(F)(F)F)cc2)cc1` (stereo unspecified) the activation was inactive: -0.68%.
For `O=[N+]([O-])c1ccc(OP2(=O)COCCO2)cc1` (stereo unspecified), the activation was inactive: 0.25%.
`O=[N+]([O-])c1cc([N+](=O)[O-])c(NCC2CCS(=O)(=O)C2)c([N+](=O)[O-])c1` (stereo unspecified) was tested, and the activation was inactive: 0.42%.
`Cc1cc(-c2cccc3ccccc23)c(C)cn1.O=[N+]([O-])c1cc([N+](=O)[O-])c(O)c([N+](=O)[O-])c1` was tested, and the activation was inactive: -0.18%.
For `Cc1c(C(c2ccc3c(c2)OCO3)c2c(C)n(C)n(-c3ccccc3)c2=O)c(=O)n(-c2ccccc2)n1C.O=[N+]([O-])c1cc([N+](=O)[O-])c(O)c([N+](=O)[O-])c1`, the activation was inactive: 0.23%.
With `COc1ccc(OP(C)(=O)Nc2cccc(Br)c2)cc1` (stereo unspecified) the activation was inactive: -0.65%.
In the case of `CN(C)CCOC(=O)C(O)(c1ccccc1)C1CCCCC1` (stereo unspecified), the activation is reported as inactive: -0.44%.
In the case of `COc1ccc(NP(C)(=O)Oc2ccccc2OC)cc1` (stereo unspecified), the activation is reported as inactive: 0.46%.
`CP(=O)(Nc1ccc2c(c1)OCCO2)Oc1ccccc1` (stereo unspecified) was tested, and the activation was inactive: -0.22%.
In the case of `Cc1ccccc1NP(C)(=O)Nc1ccccc1C`, the activation is reported as inactive: -0.24%.
In the case of `O=[N+]([O-])c1cc([N+](=O)[O-])c(C(F)(F)F)c([N+](=O)[O-])c1O`, the activation is reported as inactive: 0.34%.
With `CP(=O)(Nc1ccc(SC(F)(F)F)cc1)Oc1ccc(F)cc1` (stereo unspecified) the activation was inactive: 0.08%.
With `CCOP(C)(=S)SCC(=O)NC(C)(CC)C(=O)O` (stereo unspecified) the activation was inactive: 0.42%.
`CCOP(=O)(CC)OCC` was tested, and the activation was inactive: 0.49%.
